Biological target: JAK2 (Homo sapiens, UniProt O60674)
Experiment: DSF (JAK2) thermal shift
Assay type: binding

By UniProt entry, the sequences of proteins in these tests, tags left out. Where a name states a change or a piece, a line headed by the entry shows the natural chain unless it says otherwise.
UniProt O60674: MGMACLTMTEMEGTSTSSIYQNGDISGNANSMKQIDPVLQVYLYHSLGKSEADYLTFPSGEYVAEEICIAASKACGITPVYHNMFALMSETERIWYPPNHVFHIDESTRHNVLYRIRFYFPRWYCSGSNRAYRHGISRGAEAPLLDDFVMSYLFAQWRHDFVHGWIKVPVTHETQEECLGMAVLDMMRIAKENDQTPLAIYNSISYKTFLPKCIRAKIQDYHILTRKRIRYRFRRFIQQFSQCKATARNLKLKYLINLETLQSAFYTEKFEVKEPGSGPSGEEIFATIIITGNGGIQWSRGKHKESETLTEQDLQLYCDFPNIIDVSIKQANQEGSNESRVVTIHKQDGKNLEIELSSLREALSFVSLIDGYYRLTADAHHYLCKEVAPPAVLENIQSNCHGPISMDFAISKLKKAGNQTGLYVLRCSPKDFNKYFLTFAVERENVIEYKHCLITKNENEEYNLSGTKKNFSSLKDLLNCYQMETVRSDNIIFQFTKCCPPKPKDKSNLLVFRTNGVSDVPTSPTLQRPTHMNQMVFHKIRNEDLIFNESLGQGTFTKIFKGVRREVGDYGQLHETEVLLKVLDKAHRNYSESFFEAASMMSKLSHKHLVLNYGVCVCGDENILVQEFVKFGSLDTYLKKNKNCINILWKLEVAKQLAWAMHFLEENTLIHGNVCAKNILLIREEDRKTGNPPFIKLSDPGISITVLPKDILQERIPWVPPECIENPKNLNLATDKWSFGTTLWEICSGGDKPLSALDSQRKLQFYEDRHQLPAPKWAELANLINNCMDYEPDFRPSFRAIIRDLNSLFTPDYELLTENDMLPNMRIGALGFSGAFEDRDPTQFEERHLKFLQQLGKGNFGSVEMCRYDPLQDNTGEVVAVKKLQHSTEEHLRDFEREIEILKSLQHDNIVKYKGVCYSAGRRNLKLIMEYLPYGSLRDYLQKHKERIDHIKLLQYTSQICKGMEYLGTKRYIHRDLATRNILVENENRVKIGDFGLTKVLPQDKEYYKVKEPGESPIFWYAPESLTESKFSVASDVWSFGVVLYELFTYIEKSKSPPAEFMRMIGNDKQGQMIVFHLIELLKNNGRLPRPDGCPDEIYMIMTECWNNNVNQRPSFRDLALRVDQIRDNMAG

N#CCNC(=O)c1ccc(-c2nc(Nc3ccc(N4CCOCC4)cc3)ncc2F)cc1 [GM1-034, N-(Cyanomethyl)-4-(5-fluoro-2-((4-morpholinophenyl)amino)pyrimidin-4-yl)benzamide]
DSF (JAK2) ΔTm (° C.): 1.4 °C

From US20260103455A1, “ULK3 INHIBITORS AND USES THEREOF” (H. LEE MOFFITT CANCER CENTER AND RESEARCH INSTITUTE, INC., priority 2022, published 2026)
